Tests used:
[1] = system: peripheral blood monocytes; test: uptake of fluorochrome-conjugated gonadotropins by blood-derived leukocytes (FACS); type: cell-based, human; details: FACS with cell lineage markers
Method: Blood-derived monocytes are enriched by density gradient centrifugation. Cells are split in two and incubated for 2 hours in the presence of FITC-conjugated FSH, at 37° C. or on ice. Cells are labelled with fluorochrome-conjugated monocyte marker (e.g. anti-CD14-PerCP antibody, as described above) and analyzed with multi-colour flow cytometry (FACS).
Internalization of FSH is estimated as mean fluorescence intensity (MFI) of the cell population expressing monocyte markers. Unspecific binding (background) is estimated as MFI for cells incubated on ice
We incubated blood-derived leukocytes with fluorochrome conjugates of human recombinant and urine-derived gonadotropins (FSH, LH, and hCG). Cells were analyzed with flow cytometry (FACS) with simultaneous detection of multiple cell lineage markers.

[2] = system: monocytes and ovarian granulosa cells; test: co-culture of monocytes and ovarian granulosa cells with fluorochrome-conjugated hCG; type: cell-based; details: monocytes co-cultured with ovarian granulosa cells, FIG. 1D
Source text: Internalized gonadotropins co-localized with internalized dextran, indicating lysosomatic targeting (FIG. 1C). In order to assess the effect of gonadotropin internalization in vitro, monocytes and ovarian granulosa cells were co-cultured in the presence of fluorochrome-conjugated hCG.

Substance	binding of fluorochrome-conjugated gonadotropin to leukocytes [1]	sequestration of labelled hCG in co-culture [2]
chorionic gonadotropin [hCG]	bound to a sub-population of leukocytes bearing monocyte markers	removed from granulosa cells and accumulated by differentially labelled monocytes
follicle-stimulating hormone [FSH]	bound to a sub-population of leukocytes bearing monocyte markers	
luteinizing hormone [LH]	bound to a sub-population of leukocytes bearing monocyte markers	

Reference: patent publication US20150050663A1, “Optimal Gonadotropin Dosage” (Oslo Universitetssykehus HF, priority 2012, published 2015)
